Assay results taken from US12391679B2, “Benzamide-substituted bicyclic imidazo- and pyrazolo-fused -pyridine, -pyrimide, and -pyridazine compounds for treatment of inflammatory diseases” (ONCO3R Therapeutics BV, priority 2019, dated 2025).

System: LPS triggered IL-10 secretion in monocytes
Assay: Monocytes assay: LPS-triggered IL-10 (ELISA)
Details: LPS-triggered IL-10 induction, median maximal fold change vs LPS only

With `COc1cc(-c2cnn3cc(C(C)(C)C#N)ccc23)cc(OC(F)F)c1C(=O)N[C@@H]1C[C@H]1F` (relative stereo) the “IL-10 FCmax median” value was “+ (+ ≤1.5)”.
